Common to all, as to assay: Cytotoxicity assay (Cytell Cell Imaging, Cell Viability Bio App)
In one assay the test system is HuTu 80. To be noted: read-out: Cytotoxic effects (IC50) HuTu 80; cancer cell line HuTu 80; tested at 1–100 μM; mean ± SD, three repeats.
For another assay, the system named is Chang Liver. Particulars: read-out: Cytotoxic effects (IC50) Chang Liver; normal cell line Chang Liver; tested at 1–100 μM; mean ± SD, three repeats.
In the next assay the test system is M-HeLa. To be noted: read-out: Cytotoxic effects (IC50) M-HeLa; cancer cell line M-HeLa; tested at 1–100 μM; mean ± SD, three repeats.
A further assay has as its system PANC-1. Particulars: read-out: Cytotoxic effects (IC50) PANC-1; cancer cell line PANC-1; tested at 1–100 μM; mean ± SD, three repeats.

Each structure is given as a SMILES string.

The values below come from PMC8305974, “Novel Hybrid Compounds Containing Benzofuroxan and Aminothiazole Scaffolds: Synthesis and Evaluation of Their Anticancer Activity” (International Journal of Molecular Sciences, 2021).

For `O=[N+]([O-])c1cc([N+](=O)[O-])c2no[n+]([O-])c2c1Cl`, the IC50 (as a rule, the concentration that gives 50% inhibition) is over 100 µM with HuTu 80, over 100 µM with Chang Liver, 94.1 µM in the assay on M-HeLa and over 100 µM in the assay with PANC-1.
